Experimental data published in US7045636B2, “MCH antagonists for the treatment of obesity” (Schering Corporation, priority 2001, dated 2006).

Amino acid sequences for entries named in this document (tags omitted). A change or cut given only in a name is not applied to a line headed by its entry.
UniProt Q99705: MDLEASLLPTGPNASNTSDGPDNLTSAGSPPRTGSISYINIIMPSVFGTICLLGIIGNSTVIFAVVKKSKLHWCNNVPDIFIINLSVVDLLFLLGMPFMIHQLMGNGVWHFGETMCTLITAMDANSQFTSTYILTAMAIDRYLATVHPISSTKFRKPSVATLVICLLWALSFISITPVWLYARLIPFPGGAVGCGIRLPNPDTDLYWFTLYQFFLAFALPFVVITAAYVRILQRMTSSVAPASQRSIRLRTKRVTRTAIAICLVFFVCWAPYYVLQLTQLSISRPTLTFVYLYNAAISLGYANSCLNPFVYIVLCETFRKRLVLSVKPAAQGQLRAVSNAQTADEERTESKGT

Target: T1, MCH receptor (Homo sapiens, UniProt Q99705)
T1 construct: expressed in transfected cells; host or cells: CHO cells
Assay: MCH Receptor Binding Assay
Settings: Table 1; membranes from CHO cells expressing the MCH receptor, [125I]-MCH, SPA
Method: MCH Receptor Binding Assay:
Membranes from CHO cells expressing the MCH receptor were prepared by lysing cells with 5 mM HEPES for 15 min at 4C. Cell lysates were centrifuged ([…], 15 min) and the pellet was re-suspended in 5 mM HEPES. For each 96-well plate (Microlite, Dynex Technologies), 1 mg of cell membranes were incubated with 10 mg of wheat germ agglutinin SPA beads (Amersham) for 5 min at 4 C in a volume of 10 ml of binding buffer (25 mM HEPES, 10 mM MGCl2, 10 mM NaCl, 5 mM MnCl2, 0.1% BSA). The membrane/bead mixture was centrifuged (1500×g, 3.5 min), the supernatant was aspirated, and the pellet was re-suspended in 10 ml binding buffer. The centrifugation, aspiration and re-suspension were then repeated. The membrane/bead mixture (100 μl) was then added to 96-well plates containing 50 μl of 500 pM [^125I]-MCH (NEN) and […] of the appropriate concentration of compound (4× the desired final concentration). Nonspecific binding was determined by including 1 μM MCH in the binding reaction. The binding reaction was incubated at room temperature for 2 h. Plates were then analyzed in a TOPCOUNT microplate scintillation counter (Packard). Data was analyzed and Ki values were determined using GraphPad Prim.

Work on N#Cc1cccc(-c2ccc(CCN(CC(=O)Nc3cc(Cl)cc(Cl)c3)C(=O)CN3CC[C@@H](O)C3)cc2)c1 [Example 14] yielded a Ki of 15 nM.
